{"source": "patent US6479067B2", "about": "“Methods for treating ovarian cancer, poly (phosphoester) compositions, and biodegradable articles for same” (Guilford Pharmaceuticals, Inc., priority 1999, dated 2002)", "test_system": "melanoma cell line B16/F10", "conditions": "formulation injected on Day 3", "note": "Where two headings read alike, the source gives them in different places."}
{"substance": "Bolus IL-2: interleukin-2 (Chiron) dissolved in 50 μl of isotonic solution, 0.8 × 10^6 IU", "values": [{"measurement": "Tumor Volume (mm^3 ± SEM) After Tumor Injection", "setting": "28 days", "value": "1946 ± 505.6", "unit": "mm^3"}, {"measurement": "Tumor Volume (mm^3 ± SEM) After Tumor Injection", "setting": "42 days", "value": "3282 ± 1403.3", "unit": "mm^3"}]}
